PMC10629583, “Specific inhibition of an anticancer target, polo-like kinase 1, by allosterically dismantling its mechanism of substrate recognition” (Proceedings of the National Academy of Sciences of the …, 2023)
[ ]: non-standard residue; d: D form. The star is where a group is joined. FITC = O=C1OC2(c3ccc(O)cc3Oc3cc(O)ccc32)c2ccc(NC(=S)*)cc21; pT = C[C@@H](OP(=O)(O)O)[C@H](N)C(=O)O; Ahx = NCCCCCC(=O)O

Biological target: T1, FITC-Ahx-DPPLHSpTAI-NH2 (SMILES …)
T1 construct: also called FITC-conjugated phosphopeptide; FITC-conjugated ligand
T1 peptide: {FITC-Ahx}-DPPLHS[pT]AI-NH2
Assay: fluorescence polarisation; direct binding: FITC-Ahx-DPPLHSpTAI-NH2 with different concentrations of recombinant PBD1 WT or mutants
Settings: both partners purified

B1: PBD1 (residues 345–603) F559D (domain or fragment, human, UniProt P53350 345-603, looked up)
chain: KGLENPLPERPREKEEPVVRETGEVVDCHLSDMLQQLHSVNASKPSERGLVRQEEAEDPACIPIFWVSKWVDYSDKYGLGYQLCDNSVGVLFNDSTRLILYNDGDSLQYIERDGTESYLTVSSHPNSLMKKITLLKYFRNYMSEHLLKAGANITPREGDELARLPYLRTWFRTRSAIILHLSNGSVQINFFQDHTKLILCPLMAAVTYIDEKRDDRTYRLSLLEEYGCCKELASRLRYARTMVDKLLSSRSASNRLKAS
notes: Polo-like kinase 1 (Plk1), polo-box domain, residues 345-603, F559D; also called F559D mutant protein; source: E. coli (purified as described for the crystallography construct, Rosetta strain)
fold decrease of affinity against WT: 1.7 fold

B2: PBD1 (residues 345–603) F559K (domain or fragment, human, UniProt P53350 345-603, looked up)
chain: KGLENPLPERPREKEEPVVRETGEVVDCHLSDMLQQLHSVNASKPSERGLVRQEEAEDPACIPIFWVSKWVDYSDKYGLGYQLCDNSVGVLFNDSTRLILYNDGDSLQYIERDGTESYLTVSSHPNSLMKKITLLKYFRNYMSEHLLKAGANITPREGDELARLPYLRTWFRTRSAIILHLSNGSVQINFFQDHTKLILCPLMAAVTYIDEKRDKRTYRLSLLEEYGCCKELASRLRYARTMVDKLLSSRSASNRLKAS
notes: Polo-like kinase 1 (Plk1), polo-box domain, residues 345-603, F559K; also called F559K mutant; source: E. coli (purified as described for the crystallography construct, Rosetta strain)
fold decrease of affinity against WT: > 27 fold

B3: PBD1 (residues 345–603) F559R (domain or fragment, human, UniProt P53350 345-603, looked up)
chain: KGLENPLPERPREKEEPVVRETGEVVDCHLSDMLQQLHSVNASKPSERGLVRQEEAEDPACIPIFWVSKWVDYSDKYGLGYQLCDNSVGVLFNDSTRLILYNDGDSLQYIERDGTESYLTVSSHPNSLMKKITLLKYFRNYMSEHLLKAGANITPREGDELARLPYLRTWFRTRSAIILHLSNGSVQINFFQDHTKLILCPLMAAVTYIDEKRDRRTYRLSLLEEYGCCKELASRLRYARTMVDKLLSSRSASNRLKAS
notes: Polo-like kinase 1 (Plk1), polo-box domain, residues 345-603, F559R; also called F559R mutant; source: E. coli (purified as described for the crystallography construct, Rosetta strain)
fold decrease of affinity against WT: > 42 fold

B4: PBD1 (residues 345–603) F559E (domain or fragment, human, UniProt P53350 345-603, looked up)
chain: KGLENPLPERPREKEEPVVRETGEVVDCHLSDMLQQLHSVNASKPSERGLVRQEEAEDPACIPIFWVSKWVDYSDKYGLGYQLCDNSVGVLFNDSTRLILYNDGDSLQYIERDGTESYLTVSSHPNSLMKKITLLKYFRNYMSEHLLKAGANITPREGDELARLPYLRTWFRTRSAIILHLSNGSVQINFFQDHTKLILCPLMAAVTYIDEKRDERTYRLSLLEEYGCCKELASRLRYARTMVDKLLSSRSASNRLKAS
notes: Polo-like kinase 1 (Plk1), polo-box domain, residues 345-603, F559E; also called F559E mutant; source: E. coli (purified as described for the crystallography construct, Rosetta strain)
fold decrease of affinity against WT: ~7 fold
